This is a selection; strong and weak results do not stand in their true shares. Calls of active or inactive are those of the source. No stated cut-off is given here; in the data, active means inhibition above about 50%; inactive means the rest.
Test: inhibitors of TWEAK-Fn14 signaling, primary screen, luciferase reporter cells, uHTS (AID 1159606)
Conditions: TWEAK-stimulated Fn14 reporter cells, luciferase luminescence, 8 h; at 10 µM; active compounds read high

| SMILES | inhibition |
| --- | --- |
| COC(=O)c1cc2c(s1)N=C(c1ccccc1)N(C)P2(=O)N1CCOCC1 (centres undefined) | inactive: -9.54% |
| CC(=O)NC(SC(=S)N(CC(C)C)CC(C)C)C(Cl)(Cl)Cl (centres undefined) | inactive: 15.2% |
| Cc1ccc(OP(=O)(Nc2ccccn2)Oc2ccc(C)cc2)cc1 | inactive: -4.96% |
| O=C(OC1CN2CCC1CC2)c1ccccc1 (centres undefined) | inactive: -6.95% |
| CCC(=O)N1C2C3N(C(=O)CC)C1C1N(C(=O)CC)C(C(N1C(=O)CC)N3C(=O)CC)N2C(=O)CC | inactive: -17.9% |
| Cc1ccccc1OP(=O)(Nc1ccccn1)Oc1ccccc1C | inactive: 12.2% |
| CC(NC(=O)COC(=O)C(O)(c1ccccc1)c1ccccc1)c1ccccc1 (centres undefined) | inactive: 9.93% |
| CN(C)C(=O)Oc1noc2ccccc12 | inactive: -10.4% |
| O=c1c2cc([N+](=O)[O-])ccc2[nH]c2c([N+](=O)[O-])cc([N+](=O)[O-])cc12 | active: 96.2% |
| O=C(NC1CCS(=O)(=O)C1)NP(=S)(Oc1ccccc1)Oc1ccccc1 (centres undefined) | inactive: 8.76% |
| CCNC(=S)/N=C(\N)N[N+](=O)[O-] | inactive: -6.43% |
| c1ccc(-c2nn[nH]n2)c(-c2nn[nH]n2)c1 | inactive: 14.5% |
| Cc1ccc(NP(=O)(Oc2cccc(C)c2)Oc2cccc(C)c2)nc1 | inactive: -11% |
| O=P1(N(CCCl)CCCl)OCCC2CCCCN21 (centres undefined) | inactive: -2.86% |
| N#C/C(=C\c1ccc(N(CCBr)CCBr)cc1)C(N)=O | inactive: -8.6% |
| CC(=O)c1ccc(N2CC2c2ccncc2)cc1 (centres undefined) | inactive: 1.54% |
| COC(=O)C1(C)COP(=O)(NCc2ccccc2)OC1 (centres undefined) | inactive: 0.14% |
| Cc1ccccc1CN(C)C(=O)COC(=O)C(O)(c1ccccc1)c1ccccc1 | inactive: 1.72% |
| C[C@@H]1C=CCP(=O)(Oc2ccccc2)O1 (some centres undefined) | inactive: -7.2% |
| C[C@H]1OP(=O)(Oc2ccccc2)C[C@@H]2O[C@@H]21 (some centres undefined) | inactive: 6.67% |
| CC(=O)Nc1ccc([As](=O)(O)O)c(O)c1 | inactive: -4.45% |
| CC(=O)Nc1ccc(Oc2c([N+](=O)[O-])cc([N+](=O)[O-])cc2[N+](=O)[O-])cc1 | inactive: 18% |

| SMILES | inhibition |
| --- | --- |
| O=P1(Nc2nc3ccc(Cl)cc3s2)COc2ccccc2O1 (centres undefined) | inactive: -3.54% |
| CCOc1ccc(C2=NCC(CBr)S2)cc1 (centres undefined) | inactive: 14.9% |
| CCc1cc(O)c([N+](=O)[O-])c(C)c1[N+](=O)[O-] | inactive: 8.74% |
| CC(C)(C)C(=O)NC(Sc1ccccc1)C(Cl)(Cl)Cl (centres undefined) | inactive: -1.12% |
| O=P(Nc1nccs1)(c1ccccc1)c1ccccc1 | inactive: 5% |
| CC(C)C(=O)NC(Sc1ccccc1)C(Cl)(Cl)Cl (centres undefined) | inactive: 30.5% |
| c1nnnn1CCn1cnnn1 | inactive: 3.28% |
| CC(=O)NC(SC(=S)N(C)C)C(Cl)(Cl)Cl (centres undefined) | inactive: -10.3% |
| O=[N+]([O-])c1ncn(CCn2cnc([N+](=O)[O-])n2)n1 | inactive: -0.45% |
| O=[N+]([O-])c1ccc(O)c(/C=N/Nc2ccc([N+](=O)[O-])cc2[N+](=O)[O-])c1 | active: 79.4% |
| O=[As](O)(c1ccccc1)c1ccc(O)cc1 | inactive: 1.67% |
| Nc1ccc([As](=O)(O)c2ccc([N+](=O)[O-])cc2)cc1 | inactive: 4.05% |
| C(Cc1nn[nH]n1)Cc1nn[nH]n1 | inactive: 0.91% |
| O=C(OC1CN2CCC1CC2)c1cccc(Cl)c1 (centres undefined) | inactive: 9.95% |
| Nc1ccc(CCCCOc2ccccc2)cc1 | inactive: -8.04% |
| COc1ccc(N)c([N+](=O)[O-])c1[N+](=O)[O-] | inactive: 13.9% |
| CN(C)C1(CNC(=O)c2ccc(Cl)c(S(N)(=O)=O)c2)CCCCC1 | inactive: -0.55% |
| O=P(Nc1ccccn1)(c1ccc(Br)cc1)c1ccc(Br)cc1 | inactive: -8.56% |
| O=P(Nc1nc2ccccc2s1)(c1ccccc1)c1ccccc1 | inactive: 8.24% |
| C[C@H]1OP(=O)(Oc2ccccc2)[C@H](O)[C@H](O)[C@H]1N=[N+]=[N-] (some centres undefined) | inactive: 5.94% |
| CC(C)(C)C(=O)NC(Sc1ccncn1)C(Cl)(Cl)Cl (centres undefined) | inactive: 3.29% |
| O=[N+]([O-])c1ncn(CCn2ncnc2[N+](=O)[O-])n1 | inactive: -12.7% |

| SMILES | inhibition |
| --- | --- |
| O=[N+]([O-])c1cccc(NC2=NCC(CBr)S2)c1 (centres undefined) | inactive: -19% |
| COC(=O)C1(C)COP(=O)(Nc2ccccc2)OC1 (centres undefined) | inactive: 14.4% |
| O=C(O)CNc1ccc([As](=O)(O)O)cc1 | inactive: 14.2% |
| O=P1(N(CCCl)CCCl)OCCCS1 (centres undefined) | inactive: 4.75% |
| O=C(Nc1cc([As](=O)(O)O)ccc1O)c1ccccc1 | inactive: 14.4% |
| Nc1ccc([As](=O)(O)c2ccc(N)cc2)cc1 | inactive: -3.34% |
| C[N+]1=C2C=CC=CC=C2SC12C([N+](=O)[O-])=CC([N+](=O)[O-])=C[C-]2[N+](=O)[O-] (centres undefined) | inactive: -15.9% |
| CCN(/C(=N/P(=O)(N1CCOCC1)N1CCOCC1)N1CCOCC1)c1ccc(OC)cc1 | inactive: 3.39% |
| CC(C)=N/N=C(\N)N[N+](=O)[O-] | inactive: 5.4% |
| CC(C)c1nc(Nc2ccccc2)n(P(=O)(N(C)C)N(C)C)n1 | inactive: 7.4% |
| CN(C)C(=O)OCCc1n(C)cc[n+]1C | inactive: 12.3% |
| c1cc(-c2nn[nH]n2)ccc1-c1nn[nH]n1 | inactive: -4.88% |
| CC1CCN(C(=O)Oc2c(Cl)cc(Cl)c3cccnc23)CC1 | inactive: -21.5% |
| COc1ccc(C2=NCC(CBr)S2)cc1 (centres undefined) | inactive: -11.9% |
| CC(=O)N1C2C3N(C(C)=O)C1C1N(C(C)=O)C(C(N1C(C)=O)N3C(C)=O)N2C(C)=O | inactive: -4.58% |
| O=[N+]([O-])c1cccc2n[nH]nc12 | inactive: 3.58% |
| Cc1ccc(NP(=O)(Oc2ccccc2)Oc2ccccc2)nc1 | inactive: -12% |
| O=[N+]([O-])c1cc([N+](=O)[O-])c(CCNc2ccccc2)c([N+](=O)[O-])c1 | inactive: 10.1% |
| CCc1nc2c(n1)c1c(non1O)c1c2no[n+]1[O-] | inactive: 35.7% |
| CC(C)CC(=O)NC(Sc1ccc(Cl)cc1)C(Cl)(Cl)Cl (centres undefined) | inactive: 7.35% |
